PubChem BioAssay AID2501 (Southern Research Specialized Biocontainment Screening …, 2010)
This is a selection; strong and weak results do not stand in their true shares. Activity calls are given as the source filed them. No cut-off is given here; in the data, nearly all actives have IC50 up to about 92 µM.

Test: counter assay for TAg ATPase ADP read-out – biochemical, ADP-Hunter, fluorescence, counter-screen (AID 2501);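 note: purified T antigen ATPase; 0% = enzyme with vehicle and 100% = reference inhibitor wells; higher means more inhibition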
Conditions: at 100 µM (top of the series)

SMILES | inhibition
Cc1c2non([O-])c-2c(C)[n+](=O)[n+]1[O-] | inactive: -20.1%
